Chains of the proteins cited; added tags and fusions are not shown.
UniProt P41143, whole entry: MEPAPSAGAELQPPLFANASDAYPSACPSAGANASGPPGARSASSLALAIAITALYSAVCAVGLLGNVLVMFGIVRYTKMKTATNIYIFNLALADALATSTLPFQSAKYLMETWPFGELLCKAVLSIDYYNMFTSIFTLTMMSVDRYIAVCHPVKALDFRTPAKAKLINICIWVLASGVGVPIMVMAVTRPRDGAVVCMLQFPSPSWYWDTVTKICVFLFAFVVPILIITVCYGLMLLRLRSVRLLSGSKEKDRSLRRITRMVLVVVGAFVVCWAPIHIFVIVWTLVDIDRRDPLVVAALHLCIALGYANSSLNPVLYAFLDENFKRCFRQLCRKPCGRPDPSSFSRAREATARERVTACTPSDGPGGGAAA

According to patent US8716436B2 (priority 2010, dated 2014):

How the values were obtained:
[1] = target: T1, cloned human delta opioid receptor (Homo sapiens, UniProt P41143); assay: biochemical
T1 construct: expressed in transfected cells

[2] = target: human delta opioid receptor (Homo sapiens, UniProt P41143); assay: biochemical; assay type: binding

## C[C@@H](NC(=O)[C@@H](N)Cc1ccc(O)cc1)C(=O)NCC(=O)N(C)[C@@H](Cc1ccccc1)C(=O)NCCO [DAMGO, [D-Ala^2, N-Me-Phe^4, Gly-ol]-enkephalin, reference compound]
[1]
  EC50: 3.64 µM
[2]
  Ki: 0.589 µM
